## Binding of CDR-mutated scFvs to a peptide of the spike HR2 region

The measurements come from Engelhart et al. 2022 (doi:10.1038/s41597-022-01779-4) through the FLAb antibody collection.

Binding partner: SARS-CoV-2 spike HR2 peptide, sequence PDVDLGDISGINAS.

The variants keep the heavy chain, the linker and the frameworks of Ab-95 (scFv order VH, a 15-residue (Gly4Ser)3 linker, VL).
VH: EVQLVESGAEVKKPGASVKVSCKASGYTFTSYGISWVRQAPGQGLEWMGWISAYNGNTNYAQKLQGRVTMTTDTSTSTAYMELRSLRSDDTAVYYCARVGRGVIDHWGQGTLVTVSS
VL: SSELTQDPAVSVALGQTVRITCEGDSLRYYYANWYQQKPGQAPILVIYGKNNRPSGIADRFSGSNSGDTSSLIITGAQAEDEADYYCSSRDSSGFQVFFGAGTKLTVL

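Library AAYL52 holds single substitutions and randomly drawn double and triple substitutions in the CDRs. In AlphaSeq, yeast of one mating type display the scFv and yeast of the other type display the target. After mating in shaken culture at 30 °C for 16 h, diploids were selected and their barcode pairs sequenced. The ratio of observed to expected reads was calibrated, replicate by replicate, on BCL2-family standards whose Kd was known from biolayer interferometry. There are three technical replicates.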

Changes read parent residue, position, new residue, counted from the first residue of the VL shown.
All variants listed here change V97 of the VL, counted from its first residue.
The read-out is the apparent dissociation constant on a log10 scale (nM): the lower, the stronger.
An entry "nd" has no value in the source: the pair was not observed among the diploids in that replicate. This suggests poor binding but is not conclusive.
Parent in this assay: reference entry 2.31, copy in this library 2.25.
Three control strains display no target. For library AAYL52, 28% of the pairings with them gave a signal, with a median of 3.91 and one signal in twenty below 2.90, so weak values seen in few replicates may be background. Also given: how often the same scFv was detected with the empty control strains.

For D25C S92T V97A, the assay gave 5.29, 4.58, 3.81 (controls 5 of 9). With Y30A Q96N V97F the result was 2.17, 1.98, 1.59 (controls 2 of 9). Variant D25Y S93H V97M showed 2.91, nd, nd (controls 0 of 9). For A32Q F95N V97Y, the assay gave nd, 4.42, nd (controls 2 of 9). Variant N33T P54A V97N gave nd, nd, nd (controls 3 of 9). For G49V R90H V97L, the assay gave 4.85, nd, nd (controls 2 of 9). Variant S55D R90I V97N gave 2.35, 2.28, 1.76 (controls 4 of 9). With Y29F D91W V97S the result was 3.37, 4.22, nd (controls 2 of 9).

Variant Y31H S88H V97S showed nd, nd, nd (controls 0 of 9). Variant Y30M F95N V97S showed 1.57, 1.93, 1.52 (controls 3 of 9). With G49F N52I V97Y the result was nd, 5.25, 3.58 (controls 4 of 9). Variant G94L Q96D V97H gave 5.60, 4.77, nd (controls 3 of 9). With E23F Y29V V97S the result was nd, 4.40, 4.68 (controls 5 of 9). For N33G S93N V97I, the assay gave 3.74, 3.77, nd (controls 1 of 9). With Y29T S55V V97H the result was 5.45, 5.21, nd (controls 5 of 9). Variant N52W V97F F98L gave 4.10, 3.27, nd (controls 3 of 9).

Variant V97N gave 3.35, 3.03, 2.97 (controls 4 of 9). Variant G49Y S93V V97F showed nd, nd, nd (controls 1 of 9). Variant Y30I N51R V97N showed 3.61, nd, 4.13 (controls 5 of 9). Variant R28W G49W V97G showed 3.78, 4.58, nd (controls 3 of 9). Variant Y31C K50L V97Q gave 2.47, 2.31, 2.51 (controls 5 of 9). Variant D25A Q96D V97S gave 2.19, 2.38, 1.90 (controls 4 of 9). Variant D25L G49P V97R gave nd, nd, nd (controls 1 of 9). Variant R28S Q96G V97C showed 3.00, 2.43, 2.54 (controls 3 of 9).

Variant S26Y K50G V97R gave 3.07, 2.92, 2.39 (controls 4 of 9). Variant G94E V97N F98Y gave 4.04, 2.81, 4.06 (controls 1 of 9). Variant S88V Q96F V97A gave 4.26, nd, 4.16 (controls 0 of 9). For N33L S89Q V97L, the assay gave 3.35, nd, nd (controls 3 of 9). With A32F R90T V97I the result was 5.50, 3.65, nd (controls 1 of 9). Variant N52K R53L V97N gave 3.71, 3.71, 2.51 (controls 4 of 9). For E23Y S55A V97N, the assay gave 2.80, 3.23, 2.39 (controls 0 of 9). With E23P Y29H V97T the result was 3.72, 5.54, 3.13 (controls 1 of 9).

Variant S55W R90D V97P gave 3.46, nd, 2.04 (controls 0 of 9). For E23Q Q96L V97W, the assay gave 2.62, 1.97, 1.72 (controls 1 of 9). Variant N51R P54E V97G showed nd, 3.02, 3.86 (controls 1 of 9). Variant L27F N51G V97I gave 3.64, 3.85, nd (controls 3 of 9). Variant P54R V97F gave 2.31, 2.56, 2.66 (controls 2 of 9). For S88M D91M V97Y, the assay gave nd, nd, nd (controls 0 of 9). With F95A V97D the result was 2.49, 2.03, 1.41 (controls 4 of 9).

Excerpt, the final 6 entries:

changes,"replicates, log10 nM",empty controls
E23Q Q96L V97W,"2.62, 1.97, 1.72",1/9
N51R P54E V97G,"nd, 3.02, 3.86",1/9
L27F N51G V97I,"3.64, 3.85, nd",3/9
P54R V97F,"2.31, 2.56, 2.66",2/9
S88M D91M V97Y,"nd, nd, nd",0/9
F95A V97D,"2.49, 2.03, 1.41",4/9